# Reference: publication PMC2716403
# Tests used:
# Assay in all cases: ITC
# [1] = biological target: Nup153-ZnF3 (Rattus norvegicus) (UniProt P49791)
# [2] = biological target: Nup153-ZnF34 (tandem pair of ZnF3 and ZnF4) (Rattus norvegicus) (UniProt P49791)
# [3] = biological target: Nup153-ZnF12 (tandem pair of ZnF1 and ZnF2) (Rattus norvegicus) (UniProt P49791)
# [4] = biological target: Nup153-ZnF1 (Rattus norvegicus) (UniProt P49791)
# [5] = biological target: Nup153-ZnF1Q8D (Rattus norvegicus)
# [6] = biological target: Nup153-ZnF4D8Q (Rattus norvegicus)
# [7] = biological target: Nup153-ZnF2D8Q (Rattus norvegicus)
# [8] = biological target: Nup153-ZnF2 (Rattus norvegicus) (UniProt P49791)
# [9] = biological target: Nup153ZnF1234 (entire ZnF region of Nup153) (Rattus norvegicus) (UniProt P49791)
# [10] = biological target: Nup153-ZnF4 (Rattus norvegicus) (UniProt P49791)
# [11] = biological target: Nup358-ZnF12 (Homo sapiens) (UniProt P49792)
substance,measurement,setting,value
"RanGDP (wild-type Ran, GDP-bound) (from UniProt P62828 1-216) (natural protein)",stoichiometry N,[1],1
same,Kd 1 (site 1),[2],3 µM
same,Kd 2 (site 2),[2],59 µM
same,N1 (site 1),[2],1
same,N2 (site 2),[2],1
same,dH1 (site 1),[2],-4.11 kcal/mol
same,dH2 (site 2),[2],-0.526 kcal/mol
same,Kd 1 (site 1),[3],4 µM
same,Kd 2 (site 2),[3],57 µM
same,N1 (site 1),[3],1
same,N2 (site 2),[3],1
same,dH1 (site 1),[3],-9.8 kcal/mol
same,dH2 (site 2),[3],4.88 kcal/mol
same,stoichiometry N,[4],1
same,Kd,[5],8 µM
same,dH,[5],-2.68 kcal/mol
same,stoichiometry N,[5],1
same,stoichiometry N,[6],1
same,Kd,[7],4 µM
same,stoichiometry N,[7],1
same,dH,[8],4.02 kcal/mol
same,stoichiometry N,[8],1
same,Kd 1 (first set of sites),[9],1 µM
same,Kd 2 (second set of sites),[9],8 µM
same,N1 (first set of sites),[9],2
same,N2 (second set of sites),[9],2
same,dH1 (first set of sites),[9],-9.75 kcal/mol
same,dH2 (second set of sites),[9],0.932 kcal/mol
same,stoichiometry N,[9],4
same,dH,[10],3.01 kcal/mol
same,stoichiometry N,[11],2
"RanQ69L (GTP-bound, GTPase deficient mutant) (from UniProt P62828 1-216) (natural protein)",Kd 1 (first set of sites),[9],20 µM
same,dH1 (first set of sites),[9],-9.39 kcal/mol
